Measurements taken from patent US6538106B1, “Compositions and methods for treating infections using analogues of indolicidin” (priority 1996, dated 2003).

Experiments:
[1] = Peptide levels in plasma in vivo after iv or ip administration; design: species or system CD1 ICRBR strain mice
Method: Peptide levels in plasma in vivo are measured after iv or ip administration of 80-100% of the maximum tolerated dose of peptide analogue in either formulation C1 or D. MBI 11CN in formulation C1 is injected intravenously into the tail vein of CD1 ICRBR strain mice. At various times post-injection, mice are anesthetized and blood is drawn by cardiac puncture. Blood from individual mice is centrifuged to separate plasma from cells. Plasma is then analyzed by reversed phase HPLC column. […] Each data point represents the average blood level from two mice. In this assay, the detection limit is approximately 1 μg/ml, less than 3% of the dose administered.
The earliest time point at which peptide can be measured is three minutes following injection, thus, the maximum observed concentration (in μg/ml) is extrapolated back to time zero (FIG. 12). The projected initial concentration corresponds well to the expected concentration of between 35 and 45 μg/ml.
In addition, MBI 11CN is also administered to CD1 ICRBR strain mice by a single ip injection at an efficacious dose level of 40 mg/kg. Peptide is administered in both formulations C1 and D to determine if peptide complexation has any effect on blood levels. At various times post injection, mice are anesthetized and blood is drawn by cardiac puncture. Blood is collected and analyzed as for the iv injection.

[2] = Single and multiple dose toxicity in different formulations; type: in vivo, outbred ICR mice; conditions: for dose up to which no toxicity is shown: ip
Method: The single dose toxicity of MBI 10CN and MBI 11CN in different formulations is also examined in outbred ICR mice (Table 16). Intraperitoneal injection (groups of 2 mice) of MBI 10CN in formulation D show no toxicity up to 29 mg/kg and under the same conditions MBI 11CN show no toxicity up to 40 mg/kg.
Intravenous injection (groups of 10 mice) of MBI 10CN in formulation D show a maximum tolerated dose (MTD) of 5.6 mg/kg (Table 16). Injection of 11 mg/kg gave 40% toxicity and 22 mg/kg result in 100% toxicity. Intravenous injection of MBI 11CN in formulation C (lyophilized) show a MTD of 3.0 mg/kg. Injection at 6.1 mg/kg result in 10% toxicity and at 12 mg/kg 100% toxicity.
If the peptide solution is not lyophilized before injection, but used immediately after preparation, an increase in toxicity is seen, and the maximum tolerated dose can decrease by up to four-fold. For example, an intravenous injection of MBI 11CN as a non-lyophilized solution, formulation C1, at 1.5 mg/kg results in 20% toxicity and at 3.0 mg/kg gave 100% toxicity. HPLC analyses of the non-lyophilized and lyophilized formulations indicate that the MBI 11CN forms a complex with polysorbate, and this complexation of the peptide reduces its toxicity in mice.
In addition, mice are multiply injected by an intravenous route with MBI 11CN (Table 17). In one representative experiment, peptide administered in 10 injections of 0.84 mg/kg at 5 minute intervals is not lethal. However, two injections of peptide at 4.1 mg/kg administered with a 10 minute interval results in 60% mortality.

[3] = Acute single dose toxicity in isotonic saline (ip, iv, sc); type: in vivo, Swiss CD1 mice; conditions: 5 days
Method: In vivo toxicity of an analogue is measured through administration of a range of doses to animals, typically mice, by a route defined in part by the intended clinical use. […]. Analogues less toxic than indolicidin are preferred.
The acute, single dose toxicity of various indolicidin analogues is tested in Swiss CD1 mice using various routes of administration. In order to determine the inherent toxicities of the peptide analogues in the absence of any formulation/delivery vehicle effects, the peptides are all administered in isotonic saline with the final pH between 6 and 7.
Intraperitoneal route. […]. […] The LD50 values are calculated using the method of Reed and Muench (J. of Amer. Hyg. 27: 493-497, 1938).
Intravenous route. […]. […].
Subcutaneous route. The toxicity of MBI 11CN is also determined after subcutaneous (SC) administration. […]. After administration, the mice are observed for a period of 5 days. None of the animals died at any of the dose levels within the 5 day observation period. […]. […] These symptoms are reversible, disappearing in all mice by the second day of observations.

[4] = In vitro lifetime of free peptide in plasma; type: in vitro ADME, sheep; conditions: for apparent half-life of free peptide: sheep plasma, 37° C., 100 μg/mL
[5] = Toxicity of APS-modified and unmodified MBI 11CN, single iv dose; type: in vivo, Swiss CD-1 mice; conditions: for % Dead / Cumulative Dead / No. Surviving (cumulative): iv; for MTD: highest dose giving 100% survival
[6] = Solubility in broth (visual inspection); type: physicochemical
Method: Solubility of the peptide analogue in formulation buffer is an additional parameter that may be examined. Several different assays may be used, such as appearance in buffer. Briefly, peptide analogue is suspended in solution, such as broth or formulation buffer. The appearance is evaluated according to a scale that ranges from (a) clear, no precipitate, (b) light, diffuse precipitate, to (c) cloudy, heavy precipitate. Finer gradations may be used. In general, less precipitate is more desirable. However, some precipitate may be acceptable.
The solubility of peptide analogues is assessed in calcium and magnesium supplemented Mueller Hinton broth by visual inspection. The procedure employed is that used for the broth dilution assay except that bacteria are not added to the wells. The appearance of the solution in each well is evaluated according to the scale: (a) clear, no precipitate, (b) light diffuse precipitate and (c) cloudy, heavy precipitate.

sheep RBC = assay: Red blood cell (RBC) lysis assay; type: cell-based; conditions: for RBC lysis grouping / comparison: compared with MBI 11CN (low lysis) and Gramicidin-S (high lysis); for % lysis at 5 μg/ml / % lysis at 50 μg/ml / % lysis at 500 μg/ml: sheep RBC 1% (v/v), 1 hour at 37° C.; for % lysis at 5 μg/ml: 5 μg/ml peptide; for % lysis at 50 μg/ml: 50 μg/ml peptide; for % lysis at 500 μg/ml: 500 μg/ml peptide
Method: Generally, the analogue will be in a suitable formulation buffer. […] An analogue that is not lytic, or is only moderately lytic, as exemplified in Example 8, is desirable and is suitable for further screening.
A red blood cell (RBC) lysis assay is used to group peptides according to their ability to lyse RBC under standardized conditions compared with MBI 11CN and Gramicidin-S. Peptide samples and washed sheep RBC are prepared in isotonic saline with the final pH adjusted to between 6 and 7. Peptide samples and RBC suspension are mixed together to yield solutions that are 1% (v/v) RBC and 5, 50 or 500 μg/ml peptide. Assay mixtures are incubated for 1 hour at 37° C. with constant shaking, centrifuged, and the supernatant is measured for absorbance at 540 nm, which detects released hemoglobin. The percentage of released hemoglobin is determined by comparison with a set of known standards lysed in water. Each set of assays also includes MBI 11CN (500 μg/ml) and Gramicidin-S (5 μg/ml) as “low lysis” and “high lysis” controls, respectively.

## I L K K W P W W P W R R K [MBI 11CN]
[1]; iv, formulation D
  Free circulating peptide in blood: not detectable
[1]; single ip 40 mg/kg, formulation C1
  blood level after 60 minutes: non-detectable levels
[2]; formulation D
  dose up to which no toxicity is shown: 40 mg/kg
[2]; iv, formulation C (lyophilized), 6.1 mg/kg
  toxicity: 10%
[2]; iv, formulation C (lyophilized), 12 mg/kg
  toxicity: 100%
[2]; iv, formulation D, 2 injections of 4.1 mg/kg with 10 min interval, 4.1 mg/kg
  Result (mortality): 60% and 66%
[2]; iv, non-lyophilized solution, formulation C1, 3.0 mg/kg
  toxicity: 100%
[3]; intraperitoneal
  LD90-100: 40 mg/kg
[4]; formulation C1
  apparent half-life of free peptide: 1.5 h
[4]; formulation D, on addition to the blood
  peptide immediately released from formulation-peptide complex: up to 50%
[4]; formulation D
  apparent half-life of free peptide: 1.5 h
[5]; 3 mg/kg
  % Dead: 0%
  Cumulative Dead: 0
  No. Surviving (cumulative): 12
[5]; 5 mg/kg
  % Dead: 0%
  Cumulative Dead: 0
  No. Surviving (cumulative): 6
[5]; 8 mg/kg
  % Dead: 100%
  Cumulative Dead: 6
  No. Surviving (cumulative): 0
[5]; 10 mg/kg
  % Dead: 100%
  Cumulative Dead: 12
  No. Surviving (cumulative): 0
[5]; 13 mg/kg
  % Dead: 100%
  Cumulative Dead: 18
  No. Surviving (cumulative): 0
[5]; single iv dose in 0.9% saline
  LD50: 7 mg/kg
  dose with all subjects dying: 8 mg/mL
  MTD: 5 mg/kg

## I L R W P W W P W R R K [MBI 11B7CN]
[3]; intraperitoneal
  LD90-100: >80 mg/kg

## I L R W V W W V W R R K [MBI 11F4CN]
[6]
  Solubility ranking among the peptides tested: most insoluble and hemolytic of the peptides tested
Sheep RBC
  RBC lysis grouping / comparison: most insoluble and hemolytic of the peptides tested

## I L R W V W W V W R R K [MBI 11F4CN-HCl]
[3]; intravenous
  LD90-100: 20 mg/kg
Sheep RBC
  % lysis at 5 μg/ml: 4%
  % lysis at 50 μg/ml: 32%
  % lysis at 500 μg/ml: 38%

## I L P W K W P W W P W R R [MBI 10CN]
[2]; formulation D
  dose up to which no toxicity is shown: 29 mg/kg
[2]; iv, formulation D, 11 mg/kg
  toxicity: 40%
[2]; iv, formulation D, 22 mg/kg
  toxicity: 100%
[6]; calcium and magnesium supplemented Mueller Hinton broth
  Solubility in broth (visual appearance): less soluble than MBI 11CN

## I L K K W V W W P W R R K [MBI 11F3CN]
[3]; intraperitoneal
  LD90-100: 80 mg/kg

## i L K K W P W W P W R R k [MBI 11E3CN]
[3]; intraperitoneal
  LD90-100: 40 mg/kg

## I L K K W P W W P W R R K [MBI 11CN-TFA]
Sheep RBC
  % lysis at 500 μg/ml: 9%
[5]; single iv dose in 0.9% saline
  LD50: 7 mg/kg
  LD90-100: 8 mg/kg
  MTD: 5 mg/kg

## I L R W P W W P W R R K [MBI 11B7CN-HCl]
[3]; intravenous
  LD90-100: 16 mg/kg
Sheep RBC
  % lysis at 5 μg/ml: 4%
  % lysis at 50 μg/ml: 13%
  % lysis at 500 μg/ml: 46%

## Gramicidin-S [reference compound]
Sheep RBC
  % lysis at 5 μg/ml: 30%

## I L K K W V W W P W R R K [MBI 11F3CN-HCl]
[3]; intravenous
  LD90-100: 12 mg/kg
Sheep RBC
  RBC lysis grouping / comparison: significantly less lytic than the other two variants
  % lysis at 5 μg/ml: 1%
  % lysis at 50 μg/ml: 6%
  % lysis at 500 μg/ml: 17%

Several values for one entry are separate records, joined by “and”; a condition that tells them apart may be missing. Identical values can stand only once.
